Curated experimental data: melting point values

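OPERA's authors assembled the values from existing databases and did not measure them anew. The files give a single number for a compound and property, which may rest on several reports. Method, purity and exact conditions of the single measurements are not given. The measured form (salt, isomer or mixture) is not always the one drawn. Some upstream entries may be estimates or bounds without being marked so.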

Melting points are in °C. "–" marks a cell with nothing listed here. The databases behind each value are named after "via".

CC(Oc1ccc(Br)cc1)C(=O)O (stereo not drawn) [2-(4-bromophenoxy)propanoic acid] has mp 119 °C (via OCHEM). Listed for C(#CCN1CCCC1)CN1CCCC1.Cl.Cl [Tremorine dihydrochloride]: mp 237 °C (via OCHEM). Clc1cc(Cl)c(-c2ccc(Cl)c(Cl)c2Cl)cc1Cl [2,2',3,4,4',5'-Hexachlorobiphenyl] is reported with mp 80 °C (via QSARDB). Clc1ccc(Cl)c(-c2c(Cl)ccc(Cl)c2Cl)c1Cl [2,2',3,3',6,6'-Hexachlorobiphenyl] has mp 114 °C (via QSARDB). CC(C)(C)NC(=O)NC(=O)CCl [1-tert-Butyl-3-(2-chloro-acetyl)-urea] has mp 110 °C (via OCHEM). Listed for CC(C)(C)N(NC(=O)c1ccc(Cl)cc1)C(=O)c1ccccc1 [Halofenozide]: mp 199.2 °C (via OCHEM, PubChem). For Cc1ccc(C(O)CN)cc1 (stereo not drawn) [2-amino-1-(4-methylphenyl)ethanol] the data give mp 71 °C (via OCHEM).

CN(C)[P+](Cc1ccccc1)(N(C)C)N(C)C.[Cl-] [Benzyltris(dimethylaminato)phosphorus(1+) chloride] is reported with mp 172.5 °C (via eChemPortal). The entry for CCCCCCCC/C=C\CCCCCCCC(=O)N(C)CC(=O)O.OCCN(CCO)CCO lists mp 4.5 °C (via eChemPortal). Listed for CCCNC(=O)NC(=O)CCl [2-Chloro-N-(propylcarbamoyl)acetamide]: mp 120 °C (via OCHEM). The entry for O=C(O)C(Br)C(Br)C(=O)O (stereo not drawn) [2,3-Dibromosuccinic acid] lists mp 167 °C (via OCHEM). The entry for Clc1ccc(-c2cc(Cl)c(Cl)c(Cl)c2Cl)cc1Cl [2,3,3',4,4',5-Hexachlorobiphenyl] lists mp 129 °C (via QSARDB). CN1CCN(c2ccc(C#N)cn2)CC1 [3-Pyridinecarbonitrile, 6-(4-methyl-1-piperazinyl)-] has mp 68 °C (via OCHEM). CC(C)Cn1cc(C(=O)O)c2ccccc21 [1-(2-Methylpropyl)-1H-indole-3-carboxylic acid] is reported with mp 152 °C (via OCHEM).

For CC(=O)Nc1nc(CCl)cs1 [2-Acetamido-4-chloromethylthiazole] the data give mp 160 °C (via OCHEM). Cc1cc(N2CCN(C)CC2)ccc1N [2-methyl-4-(4-methylpiperazin-1-yl)aniline] is reported with mp 101 °C (via OCHEM). CNC(=O)NC(=O)CCl [1-(2-Chloro-acetyl)-3-methyl-urea] has mp 156 °C (via OCHEM). Cc1ccc(C(=O)CCl)s1 [2-Chloro-1-(5-methylthiophen-2-yl)ethan-1-one] is reported with mp 46 °C (via OCHEM). C[C@]12CCC(=O)C=C1CC[C@H]1[C@@H]3[C@@H](O)CC(=O)[C@@]3(C)CC[C@@H]12 has mp 195 °C (via eChemPortal). Listed for COc1ccc(CC(N)c2ccc(OC)cc2)cc1.Cl (stereo not drawn): mp 176 °C (via OCHEM). The entry for c1ccc(C(c2ccccc2)C2CCCCN2)cc1 (stereo not drawn) [2-(Diphenylmethyl)piperidine] lists mp 66 °C (via PubChem).

Clc1cccc(-c2cccc(Cl)c2Cl)c1Cl has mp 121 °C (via QSARDB). The entry for CNC(C)Cc1ccc2c(c1)OCO2.Cl (racemic) lists mp 150 °C (via OCHEM). O=C(O)c1cn(Cc2ccccc2)c2ccccc12 [Indole-3-carboxylic acid, 1-benzyl-] is reported with mp 193 °C (via OCHEM). For CC(CC(=O)OOC(=O)CC(C)CC(C)(C)C)CC(C)(C)C (stereo not drawn) [Peroxide, bis(3,5,5-trimethyl-1-oxohexyl)] the data give mp -75.4 °C (via eChemPortal). Listed for Oc1cccc2nc3ccccc3nc12 [Phenazin-1-ol]: mp 158 °C (via OCHEM). Listed for COC1=CC2=CC[C@H]3[C@@H]4[C@@H](OC(C)=O)CC(=O)[C@@]4(C)CC[C@@H]3[C@@]2(C)CC1: mp 217 °C (via eChemPortal). COc1cc2c(c3oc4cccc(O)c4c(=O)c13)C1C=COC1O2 (stereo not drawn) [Sterigmatocystin] has mp 246 °C (via PubChem).

The entry for C[C@]12CCC(=O)N[C@@H]1CC[C@@H]1[C@@H]2CC[C@]2(C)C(=O)CC[C@@H]12 lists mp 301 °C (via eChemPortal). For COC1=CC=C2[C@H]3Cc4ccc(O)c5c4[C@@]2(CCN3C)[C@H]1O5 [Oripavine] the data give mp 200.5 °C (via PubChem). The entry for N#CSc1ccc(N)cc1 [Thiocyanic acid, p-aminophenyl ester] lists mp 49.5 °C (via OCHEM). Listed for Cc1cc(C=O)c(C)n1C(C)C [1-Isopropyl-2,5-dimethyl-1H-pyrrole-3-carbaldehyde]: mp 46 °C (via OCHEM). The entry for Cc1cc(C(=O)O)c(C)n1C1CCCCC1 [1-Cyclohexyl-2,5-dimethyl-1H-pyrrole-3-carboxylic acid] lists mp 205 °C (via OCHEM). Listed for CSc1nc(=O)cc(CCl)[nH]1 [6-(Chloromethyl)-2-(methylsulfanyl)pyrimidin-4(1H)-one]: mp 177 °C (via OCHEM). C[C@H](N)Cc1ccccc1 [Dextroamphetamine] has mp 26.25 °C (via PubChem).

For Cn1c(=O)c2ncnnc2n(C)c1=O [6,8-Dimethylpyrimido(5,4-e)-as-triazine-5,7(6H,8H)dione] the data give mp 178 °C (via OCHEM). For O=S(=O)([N-]S(=O)(=O)C(F)(F)C(F)(F)F)C(F)(F)C(F)(F)F.[Li+] [Lithium bis[(pentafluoroethyl)sulfonyl]azanide] the data give mp 328 °C (via ChemicalBook). Clc1ccc(-c2ccccc2Cl)cc1 [2,4'-Dichlorobiphenyl] is reported with mp 43 °C (via QSARDB). Cc1cc(C=O)c(C)n1C1CCCCC1 [1-Cyclohexyl-2,5-dimethyl-1H-pyrrole-3-carbaldehyde] has mp 76 °C (via OCHEM). The entry for COc1ccc2c3c1OC1C(O)C=CC4C(C2)[N+](C)(C)CCC341.[Br-] (stereo not drawn) [Codeine methylbromide] lists mp 260 °C (via OCHEM). For COc1ccc(Br)cc1CBr [4-bromo-2-(bromomethyl)-1-methoxybenzene] the data give mp 54.5 °C (via OCHEM). C[N+](C)(C)C.[OH-] [Tetramethylammonium hydroxide] has mp 63 °C (via PubChem).

Listed for NC(N)=[Se] [Selenourea]: mp 200 °C (via PubChem). For O=C(O)c1cnn(Cc2ccccc2)c1 [1-Benzyl-1H-pyrazole-4-carboxylic acid] the data give mp 150 °C (via OCHEM). COc1cc2c(c3oc(=O)c4c(c13)CCOC4=O)[C@@H]1CCO[C@@H]1O2 [Aflatoxin G2] has mp 238.6 °C (via PubChem). The entry for CC(C)(C)NC(=O)CCl [N-(tert-Butyl)-2-chloroacetamide] lists mp 76 °C (via OCHEM).

7 of these entries, quoted again:

| structure (SMILES) | name | mp (°C) | via |
|---|---|---|---|
| COC1=CC=C2[C@H]3Cc4ccc(O)c5c4[C@@]2(CCN3C)[C@H]1O5 | Oripavine | 200.5 | PubChem |
| COc1ccc(Br)cc1CBr | 4-bromo-2-(bromomethyl)-1-methoxybenzene | 54.5 | OCHEM |
| COC1=CC2=CC[C@H]3[C@@H]4[C@@H](OC(C)=O)CC(=O)[C@@]4(C)CC[C@@H]3[C@@]2(C)CC1 | – | 217 | eChemPortal |
| c1ccc(C(c2ccccc2)C2CCCCN2)cc1 (stereo not drawn) | 2-(Diphenylmethyl)piperidine | 66 | PubChem |
| CC(C)Cn1cc(C(=O)O)c2ccccc21 | 1-(2-Methylpropyl)-1H-indole-3-carboxylic acid | 152 | OCHEM |
| CC(C)(C)N(NC(=O)c1ccc(Cl)cc1)C(=O)c1ccccc1 | Halofenozide | 199.2 | OCHEM, PubChem |
| Clc1ccc(-c2ccccc2Cl)cc1 | 2,4'-Dichlorobiphenyl | 43 | QSARDB |

Source: data files of OPERA 2.9 (Mansouri et al.), github.com/kmansouri/OPERA.